Measurements taken from patent US10668061B2, “Mouse with D4R iRNA in the intercalating cell mass of the amygdala” (POSTECH ACADEMY-INDUSTRY FOUNDATION, priority 2016, dated 2020).

Test system: dorsal ITC neurons
Experiment: STDP-induced DA-dependent LTD (DA-LTD) in dorsal ITC neurons, amygdala slice whole-cell recordings
Format: cell-based, mice
Protocol: To compare mPSCs without or after STDP, KCl-based and K-gluconate-based internal solutions were used for recording mIPSCs and mEPSCs, respectively. K-gluconate based solution was also used to record EPSCs and IPSCs evoked by interleaved stimulation. Series resistance (10-30 MΩ) was monitored throughout all experiments. mEPSCs were recorded at −70 mV holding potential in the presence of 1 μM tetrodotoxin (TTX) and 100 μM picrotoxin (Tocris, UK) while mIPSCs were measured at −70 mV in the presence of 1 μM TTX, 25 μM NBQX, and 50 μM 2-amino-5-phosphonovaleric acid (APV, Tocris). Miniature PSCs were analyzed with MiniAnalysis (Synaptosoft, Fort Lee, N.J.) or Clampfit 10.1 software (Molecular Devices). For PSC recordings with interleaved stimulation, the holding potential was briefly (˜40 ms) changed from −70 mV to +10 mV to reach the reversal potential of EPSC for isolation of putative IPSCs. For STDP experiments, stimulus intensity was adjusted to elicit EPSPs displaying 25%-30% of the maximum amplitudes. After obtaining stable baseline recording, 80 presynaptic stimuli were delivered at 2 Hz via metal stimulating electrode placed in LA while paired with action potentials induced by injection of depolarizing current to postsynaptic neurons. Quantal contents were estimated by obtaining the inverse square of the coefficient of variation (1/CV^2). […]. […]

## CCCN1CCC[C@@H]2Cc3n[nH]cc3C[C@H]21 [quinpirole]
  induction of LTD at the dorsal ITC by receptor agonist: did not
